Results reported in BindingDB's records for 10753470.

Molecular target: Kappa-type opioid receptor (Homo sapiens, UniProt P41145)
Assay: Competitive binding displacement analyses was performed from permanently transfected HEK293 cells expressing Opioid receptor kappa 1

O=C1NCN(c2ccccc2)C12CCN(C1Cc3cccc4cccc1c34)CC2 (stereo unspecified)
Ki: 26 nM
